Experimental data reported in publication PMC8086025, “A benzopyran with antiarrhythmic activity is an inhibitor of Kir3.1-containing potassium channels” (The Journal of Biological Chemistry, 2021).

Protein sequences, listed by entry. Tags and fused reporters are not part of them. Lines headed by an entry give the natural chain unless they say otherwise; changes in a name come on top.
UniProt P43116: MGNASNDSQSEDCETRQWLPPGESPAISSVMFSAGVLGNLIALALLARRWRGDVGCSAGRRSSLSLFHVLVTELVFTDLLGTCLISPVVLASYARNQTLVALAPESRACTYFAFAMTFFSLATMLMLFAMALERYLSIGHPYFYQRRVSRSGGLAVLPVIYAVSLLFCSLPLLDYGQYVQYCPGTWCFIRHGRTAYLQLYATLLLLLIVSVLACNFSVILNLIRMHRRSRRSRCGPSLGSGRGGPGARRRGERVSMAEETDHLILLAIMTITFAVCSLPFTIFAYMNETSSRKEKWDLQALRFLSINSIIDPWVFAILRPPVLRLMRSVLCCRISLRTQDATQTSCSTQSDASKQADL
UniProt P21452, whole entry: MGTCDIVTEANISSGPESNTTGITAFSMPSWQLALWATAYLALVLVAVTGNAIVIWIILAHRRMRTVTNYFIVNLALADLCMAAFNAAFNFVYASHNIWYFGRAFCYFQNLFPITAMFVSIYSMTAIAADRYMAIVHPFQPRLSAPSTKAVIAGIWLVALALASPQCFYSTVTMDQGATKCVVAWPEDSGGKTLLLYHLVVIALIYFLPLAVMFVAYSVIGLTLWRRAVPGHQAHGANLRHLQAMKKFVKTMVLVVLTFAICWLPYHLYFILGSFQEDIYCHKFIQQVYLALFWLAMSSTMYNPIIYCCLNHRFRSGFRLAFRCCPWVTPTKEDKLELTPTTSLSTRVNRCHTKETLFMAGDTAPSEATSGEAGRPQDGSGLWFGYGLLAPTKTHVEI

Assays:
EP2 = biological target: T1, EP2 (Homo sapiens, UniProt P43116); experiment: Radioligand binding, [3H]PGE2; settings: reference compound run for the assay
T1 construct: expressed in transfected cells; host or cells: HEK-293 cells

Neurokinin NK2 = biological target: T2, Neurokinin NK2 (Homo sapiens, UniProt P21452); experiment: Radioligand binding, [125I]NKA
T2 construct: expressed in transfected cells; host or cells: CHO cells

| Structure (SMILES) | IC50 (EP2) [nM] | IC50 (Neurokinin NK2) [nM] |
| --- | --- | --- |
| CCCCC[C@H](O)/C=C/[C@H]1[C@H](O)CC(=O)[C@@H]1C/C=C\CCCC(=O)O [PGE2] | 1.7 |  |
| CCCC[C@H](NC(=O)[C@H](CC(C)C)NC(=O)CNC(=O)[C@@H](NC(=O)[C@H](Cc1ccccc1)NC(=O)[C@H](CO)NC(=O)[C@@H](N)CC(=O)O)C(C)C)C(N)=O |  | 2.7 |
